# AlphaSeq binding of Ab-14 heavy chain variants to a spike HR2 peptide

Source: Li et al. 2023 (doi:10.1038/s41467-023-39022-2), MIT Lincoln Laboratory and A-Alpha Bio; data file from the FLAb repository.

All variants were tested on one target, the spike HR2 peptide PDVDLGDISGINAS (SARS-CoV-2).

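The starting antibody came from a phage panning campaign against this peptide. This is the validation round: designs drawn from the data on random variants, tested in the same kind of assay. Group labels follow the data file (Ctrl: baseline library sampled from a position-specific scoring matrix, with some repeated check sequences; Rand: our label for a block that the file lists under HC and that is probably the random mutants of the ten best first-round binders; En: ensemble of fine-tuned language models; GP: Gaussian process model; GPLM: also part of the Gaussian process libraries; HC: hill climbing; Gen: genetic algorithm; Gibbs: Gibbs sampling; a sequence that several methods proposed may carry one label only). The assay is AlphaSeq: two haploid yeast populations carry antibody and antigen on their surface. Binding brings cells together so that they mate, and sequencing counts the barcode pairs among the diploids. A regression on co-assayed BCL2-family reference pairs converts the normalised counts of each replicate to an apparent Kd. Each pool was mated in six replicate cultures.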

The variants keep the light chain, the linker and the frameworks of Ab-14 (scFv order VH, the linker GGGGSGGGGSGGGGS, VL).
VH: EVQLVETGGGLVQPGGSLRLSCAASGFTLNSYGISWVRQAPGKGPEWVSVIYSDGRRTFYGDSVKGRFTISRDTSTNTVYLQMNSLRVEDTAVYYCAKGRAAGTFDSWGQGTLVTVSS
VL: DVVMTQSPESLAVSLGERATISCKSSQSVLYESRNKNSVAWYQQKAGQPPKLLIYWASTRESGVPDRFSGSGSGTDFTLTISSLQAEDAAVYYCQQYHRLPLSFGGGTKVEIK

Each variant is given by its three heavy chain CDRs, as the data file delimits them; those of the parent are GFTLNSYGIS, VIYSDGRRTFYGDSVK, GRAAGTFDS.
Values are log10 of the apparent Kd in nM; lower means stronger binding.
Averages over replicates are reported, and they cover detected replicates only.
"not detected" means that the variant was in the library but no mating with the target was seen in any replicate; the authors take this as a sign of poor binding, and no number exists.
The range of this assay differs from that of the first round, and the authors advise against merging the two.

CDR-H1 | CDR-H2 | CDR-H3 | group | mean log10 Kd (nM) | detected | signal with controls
KENIDEYGIS | VIYADGRRTAYTQDVK | GQNGGQIDV | En_Gibbs | 2.85 | 3 of 6 | 2 of 18
GFDLNSYGIS | VIYSDGRRTFYGDDVK | GRAAGHFTS | GP_HC | not detected | 0 of 6 | 0 of 18
GFDLNSYGIS | VIYSDGRRTFYKDSVK | GREAGTFDV | GP_Gibbs | -0.33 | 6 of 6 | 2 of 18
GFTLNSYGIS | VIYSDGRRTFYADSVK | GNAAGIFDT | GP_HC | 1.96 | 1 of 6 | 0 of 18
KFTLNEYGIS | VIYSDGRRTFYGDSVK | GRAAVTFDV | GP_HC | not detected | 0 of 6 | 0 of 18
GFDLNEYGIS | VIYADGRRTYYADSVK | GNVAGTFDT | En_Gen | -0.62 | 6 of 6 | 0 of 18
GFTLNSYGIS | VIYSDGRRTAYGDSVK | GRAAGTFDV | Ctrl | 0.62 | 6 of 6 | 1 of 18
GFDLDEYGIS | VIYADGMRTAYSDNVK | GEVAGTFDQ | En_Gen | -0.45 | 6 of 6 | 1 of 18
GFWLNEYGIS | VIYSDGRRTFYHDSVK | GRTAGTFDS | GP_Gen | 0.75 | 6 of 6 | 0 of 18
GFTLESYGIS | VIYSDGKRTFYGDSVK | GRAAGTFTS | GP_HC | not detected | 0 of 6 | 1 of 18
DFTLNSYGIS | VIYADGRRTFYGDSVK | GVAAGTFDS | Ctrl | 1.23 | 6 of 6 | 0 of 18
GFGLNSYGIS | VIYSDGRRTFYSDAVK | GKAAGTFDS | GP_Gibbs | 0.74 | 6 of 6 | 0 of 18
GFSLNSYGIS | VIYSDGRRTFYADSVK | GHAAGTFDA | GPLM_Gen | 0.29 | 6 of 6 | 1 of 18
GFDLEDYGIS | VIYADGRRTAYADSVK | GEVAGTFDV | En_Gen | -0.41 | 6 of 6 | 1 of 18
GFELNSYGIS | VIYSDGRRTFYGDPVK | GKTAGTFDS | GP_Gen | 1.58 | 6 of 6 | 0 of 18
GFTINSYGIS | VIYSDGRRTFYDDSVK | GRAAGTFDS | Ctrl | 0.55 | 6 of 6 | 0 of 18
GFCLNDYGIS | VIYSDGRRTFYGDSVK | GTAAGTFDS | GP_HC | 2.07 | 6 of 6 | 1 of 18
HFDLNSYGIS | VIYSDGRRTFYADSVK | GKAAGTFDS | GP_Gen | 0.56 | 6 of 6 | 1 of 18
GFDLESYGIS | VIYADGSRTAYADSVK | GNVAGTFDK | En_HC | -0.52 | 6 of 6 | 0 of 18
GFDLNEYGIS | VIYADGMRTAYANDVK | GNVAGTFDT | En_Gen | 0.45 | 6 of 6 | 0 of 18
GFTLNEYGIS | VIYSDGRRTFYTDSVK | GFAAGTFDL | GP_HC | 0.27 | 6 of 6 | 1 of 18
GFELNNYGIS | VIYSDGRRTFYGDSVK | GRTAGTFDT | GP_Gen | 0.34 | 6 of 6 | 1 of 18
GFSLNSYGIS | VIYSDGRRTFYADSVK | GWAAGTFDN | GPLM_Gen | -0.09 | 4 of 6 | 0 of 18
GFDLNSYGIS | VIYSDGRRTFYSDSVK | GKAAGTFDT | GP_Gen | 0.01 | 6 of 6 | 0 of 18
GFALNSYGIS | VIYSDGRRTFYGDSVK | GNEAGTFDS | GP_Gibbs | 2.33 | 3 of 6 | 0 of 18
GFTLNSYGIS | VIYSDGKRTFYGDSVK | GRAAGPFDS | Ctrl | 2.28 | 5 of 6 | 0 of 18
GFTLNSYGIS | VIYSDGHRTFYGDSVK | GRAEGTADS | Ctrl | not detected | 0 of 6 | 0 of 18
GFDLNEYGIS | VIYADGRRTFYADSVK | GNVAGTFIS | En_HC | -0.19 | 2 of 6 | 0 of 18
GFDLNEYGIS | VIYADGMRTFYSDSVK | GEAAGTFDS | En_HC | -0.06 | 6 of 6 | 0 of 18
GFFLNDYGIS | VIYSDGRRTFYGDSVK | GQAAGTFDS | GP_HC | 0.38 | 6 of 6 | 0 of 18
GFSLNDYGIS | VIYSDGRRTFYIDHVK | GKAAGTFDS | GP_HC | 0.39 | 6 of 6 | 2 of 18
GFTLNDYGIS | VIYSDGRRTFYGDSVK | GRKAGTKDS | Ctrl | not detected | 0 of 6 | 0 of 18
GFTLNSGGIS | VIYSDGRRTFYIDSVK | GQLADTFDS | Rand | not detected | 0 of 6 | 0 of 18
GFTLNSYGIS | VIYADGRRTFYGDAVK | GRTAGTFDS | GP_Gibbs | 0.29 | 6 of 6 | 0 of 18
GFTLNRYGIS | VIYSDGRRTFYADSVK | GQLAGTFDS | GPLM_HC | 0.76 | 6 of 6 | 0 of 18
GFTLNSYGIS | VIYADGRRTFYGDSVK | VRAAGTNKS | Rand | not detected | 0 of 6 | 0 of 18
GFDLEEYGIS | VIYADGRRTFYADSVK | GNVAGTFDV | En_HC | -0.43 | 6 of 6 | 0 of 18
GFSLNSYGIS | VIYSDGQRTFYVDSVK | GQAAGTFDS | GPLM_Gen | 2.04 | 4 of 6 | 0 of 18
GDSLNEYGIS | VIYADGFRAVYTDKVK | GVTGGNFSS | En_Gibbs | not detected | 0 of 6 | 0 of 18
GFTLDSYGIS | VIYSCGRRTFYGDSVK | GRAAGTALN | Rand | not detected | 0 of 6 | 0 of 18
GFDLDEYGIS | VIYADGKRTAYSDSVK | GNTAGTFDV | En_Gen | not detected | 0 of 6 | 0 of 18
KFSLNNYGIS | VIYSDGRRTFYADSVK | GRNAGTFDS | GP_Gibbs | 1.21 | 6 of 6 | 0 of 18
GFDLNSYGIS | VIYSDGRRTFYGDSVK | GNTAGTFDE | GP_Gibbs | 0.10 | 6 of 6 | 1 of 18
GFDLGEYGVS | VIYADGLRAQYASKVK | GNFSGNIDK | En_Gibbs | not detected | 0 of 6 | 0 of 18
GKTLDEYGIS | VIYADGMRTSYIDSVK | GGIDGWRFI | En_Gibbs | not detected | 0 of 6 | 0 of 18
GFDLEDYGIS | VIYADGMRTAYADSVK | GEVAGTFDI | En_Gen | -0.50 | 6 of 6 | 0 of 18
GNDLEEYGIS | VIYADGIRTNYHQNVK | GTNGDTFTQ | En_Gibbs | not detected | 0 of 6 | 0 of 18
GFDLNEYGIS | VIYADGRRTFYADSVK | GQNAGTFSV | En_HC | 0.02 | 6 of 6 | 0 of 18
GFTLNSYGIS | VIYSDGRRTFYGDNVK | GTAAGTFDS | Ctrl | 0.41 | 6 of 6 | 0 of 18
HFTLNSYGIS | VIYSDGRRTFYDDSVK | GRAKGTFDS | Ctrl | 2.01 | 1 of 6 | 1 of 18
GEDLQEYGIS | VIYADGFRQSYSEKVK | GQHAGFLVK | En_Gibbs | 1.08 | 1 of 6 | 0 of 18
GFDLNEYGIS | VIYADGRRTSYVDSVK | GQVAGTFNV | En_HC | -0.33 | 6 of 6 | 0 of 18
GFDLNSYGIS | VIYSDGRRTFYIDSVK | GSAAGTFDA | GP_Gibbs | -0.15 | 6 of 6 | 0 of 18
GFSLNEYGIS | VIYSDGRRTFYTDVVK | GRFAGTFDS | GP_HC | 0.98 | 6 of 6 | 0 of 18

For reference, 6 entries of the list once more:

CDR-H1	CDR-H2	CDR-H3	group	mean log10 Kd (nM)	detected	signal with controls
GFTLNSYGIS	VIYADGRRTFYGDAVK	GRTAGTFDS	GP_Gibbs	0.29	6 of 6	0 of 18
GFDLNSYGIS	VIYSDGRRTFYGDDVK	GRAAGHFTS	GP_HC	not detected	0 of 6	0 of 18
GNDLEEYGIS	VIYADGIRTNYHQNVK	GTNGDTFTQ	En_Gibbs	not detected	0 of 6	0 of 18
KENIDEYGIS	VIYADGRRTAYTQDVK	GQNGGQIDV	En_Gibbs	2.85	3 of 6	2 of 18
GFDLNEYGIS	VIYADGRRTSYVDSVK	GQVAGTFNV	En_HC	-0.33	6 of 6	0 of 18
GKTLDEYGIS	VIYADGMRTSYIDSVK	GGIDGWRFI	En_Gibbs	not detected	0 of 6	0 of 18

Empty control strains, which show no peptide, gave a signal in 1% of pairings with all heavy chain designs; the median was 2.08 and 95% of these signals were weaker than 0.84. No background was subtracted. The control count says in how many pairings with the empty strains this scFv gave a signal.
The authors averaged sequences with at least three values out of six and counted those with two or fewer as poor binders.